One substance from patent US20150111864A1, “CRYSTALLINE FORM OF A BETA-LACTAMASE INHIBITOR” (Cubist Pharmaceuticals, Inc., priority 2013, published 2015) can be followed below.

Assay [1] has as its system Eco isogenic strain expressing KPC-2. Put plainly: Synergy MIC (sMIC) assay. Type of assay: cell-based, Escherichia coli. To be noted: β-Lactam CXA-101 at 4 μg/mL; KPC-2, isogenic Eco. Here is the method:
(§1) The synergy MIC (sMIC) assay determines the concentration of the BLI required to potentiate the activity of a fixed concentration of a β-lactam antibiotic against β-lactamase producing bacterial strains. The experimental protocol was performed according to Clinical and Laboratory Standards Institute (CLSI) guidelines with modifications as described below (CLSI guidelines can be derived from the CLSI document M07-A9 published in January 2012: “Methods for Dilution Antimicrobial Susceptibility Tests for Bacteria That Grow Aerobically; Approved Standard-Ninth Edition”). […]
(§2) Plates were incubated for 18-20 hours at 37° C. with aeration (200 rpm). Following incubation, growth was confirmed visually placing plates over a viewing apparatus (stand with a mirror underneath) and then OD600 was measured using a SpectraMax 340PC384 plate reader (Molecular Devices, Sunnyvale, Calif.). Growth was defined as turbidity that could be detected with the naked eye or achieving minimum OD600 of 0.1. sMIC values were defined as the lowest concentration producing no visible turbidity. […]

In assay [2] the test system is Kpn clinical strain expressing KPC-2. Kind of assay: Synergy MIC (sMIC) assay. It counts as cell-based, Klebsiella pneumoniae. To be noted: β-Lactam CXA-101 at 4 μg/mL; KPC-2, clinical Kpn. The procedure: as §1, §2
The subject of assay [3] is Pae clinical strain expressing KPC-2. Put plainly: Synergy MIC (sMIC) assay. It counts as cell-based, Pseudomonas aeruginosa. To be noted: β-Lactam CXA-101 at 4 μg/mL; KPC-2, clinical Pae. Here is the method:
as §1, §2

The test system of assay [4] is Pae.2808 (KPC-2, clinical). Put plainly: Standard BLI Potentiation MIC Assay in Combination with Ceftolozane. The following applies: BLI at 4 μg/mL. Type of assay: cell-based, Pseudomonas aeruginosa. Here is the method:
(§3) The experimental protocol was performed according to Clinical and Laboratory Standards Institute (CLSI) guidelines with modifications as described below (CLSI guidelines can be derived from the CLSI document M07-A9 published in January 2012: “Methods for Dilution Antimicrobial Susceptibility Tests for Bacteria That Grow Aerobically; Approved Standard-Ninth Edition”).
To prepare for MIC testing, frozen glycerol stocks of clinical isolates (Klebsiella pneumoniae, Escherichia coli, Enterobacter spp, Citrobacter spp, or Pseudomonas aeruginosa) were used to streak for isolated colonies on rich, non-selective, tryptic soy agar containing 5% sheep's blood (TSAB). Frozen glycerol stocks of laboratory engineered, isogenic E. coli strains, which contain cloned β-lactamase expressing plasmids were used to streak for isolated colonies on rich, selective LB agar supplemented with 25 μg/mL tetracycline to maintain the plasmid. All strains were incubated at 37° C. for 18-24 hrs. […]
(§4) Plates were incubated for 18-20 hours at 37° C. with aeration (200 rpm). Following incubation, growth was confirmed visually placing plates over a viewing apparatus (stand with a mirror underneath) and then OD600 was measured using a SpectraMax 340PC384 plate reader (Molecular Devices, Sunnyvale, Calif.). Growth was defined as turbidity that could be detected with the naked eye or achieving minimum OD600 of 0.1. […]

Assay [5] deals with Kpn.2478 (KPC-3, TEM+, clinical). Described as above. To be noted: BLI at 4 μg/mL. It counts as cell-based, Klebsiella pneumoniae. Here is the method:
as §3
(§5) To prepare for MIC testing, frozen glycerol stocks of clinical isolates (Klebsiella pneumoniae, Escherichia coli, Enterobacter spp, Citrobacter spp, or Pseudomonas aeruginosa) were used to streak for isolated colonies on rich, non-selective, tryptic soy agar containing 5% sheep's blood (TSAB). Frozen glycerol stocks of laboratory engineered, isogenic E. coli strains, which contain cloned β-lactamase expressing plasmids were used to streak for isolated colonies on rich, selective LB agar supplemented with 25 μg/mL tetracycline to maintain the plasmid. All strains were incubated at 37° C. for 18-24 hrs.
(§6) On the day of testing, primary cultures were started by scraping off 5-10 colonies from the TSAB plates containing clinical strains or the tetracycline supplemented LB plates containing engineered strains. The clinical strain material was suspended in ˜5 mL of cation adjusted Mueller Hinton Broth (CAMHB) in 14 mL culture tubes. The engineered strain material was suspended in CAMHB (supplemented with 25 μg/mL tetracycline) in 14 mL culture tubes. All strains were incubated at 37° C. with aeration (200 rpm) for ˜2 hrs until the optical density at 600 nm (OD600) was ≧0.1.
(§7) The two compound components of the assay were each diluted in CAMHB and added to the 96-well broth microdilution assay plates. 50 μL of the β-lactam was added to each well of the assay plate in 2-fold dilutions with final concentrations ranging from 128 to 0.13 μg/mL. 25 μL of the BLI compound was added to all wells in the broth microdilution plates at a final concentration of 4 μg/mL. Inoculum cultures were prepared by standardizing the primary cultures to OD600=0.1 and then adding 20 μL of the adjusted primary culture per 1 mL CAMHB for clinical strains or CAMHB (supplemented with tetracycline at 100 μg/mL) for engineered strains, so that the final inoculum density was ˜10^5 colony forming units per milliliter. Diluted inoculum cultures were used to inoculate 25 μL per well in 96-well broth microdilution assay plates. The final volume of each well was 100 μL and contained a β-lactam at different concentrations, a BLIcompound at 4 μg/mL concentration, the bacterial culture at an OD600 of approximately 0.001 and when necessary tetracycline at 25 μg/mL.
(§8) Plates were incubated for 18-20 hours at 37° C. with aeration (200 rpm). Following incubation, growth was confirmed visually placing plates over a viewing apparatus (stand with a mirror underneath) and then OD600 was measured using a SpectraMax 340PC384 plate reader (Molecular Devices, Sunnyvale, Calif.). Growth was defined as turbidity that could be detected with the naked eye or achieving minimum OD600 of 0.1. MIC values were defined as the lowest concentration producing no visible turbidity.

Assay [6] relates to Kpn.2490 (KPC-3, SHV+, TEM+, clinical). The assay is described as above. The following applies: BLI at 4 μg/mL. Type of assay: cell-based, Klebsiella pneumoniae. The procedure:
as §3, §5, §6, §7, §8

For assay [7], the system named is Kpn.2783 (CTX-M-15, SHV+, TEM+, clinical). Described as above. To be noted: BLI at 4 μg/mL. Type of assay: cell-based, Klebsiella pneumoniae. The procedure:
as §3, §5, §6, §7, §8

Assay [8] concerns Kpn.2909 (KPC-3, SHV+, TEM+, clinical). The assay is described as above. To be noted: BLI at 4 μg/mL. Type of assay: cell-based, Klebsiella pneumoniae. Here is the method:
as §3, §5, §6, §7, §8

Assay [9] relates to Kpn.2913 (KPC-2, SHV+, clinical). The assay is described as above. Type of assay: cell-based, Klebsiella pneumoniae. The following applies: BLI at 4 μg/mL. The procedure:
as §3, §5, §6, §7, §8

Assay [10] has as its system Kpn.2914 (KPC-2, SHV+, clinical). The assay is described as above. Type of assay: cell-based, Klebsiella pneumoniae. To be noted: BLI at 4 μg/mL. Here is the method: as §3, §5, §6, §7, §8
In assay [11] the test system is Kpn.2917 (KPC-2, SHV+, clinical). Described as above. To be noted: BLI at 4 μg/mL. It counts as cell-based, Klebsiella pneumoniae. The procedure: as §3, §5, §6, §7, §8
The test system of assay [12] is Kpn.2918 (KPC-3, SHV+, TEM+, clinical). The description is as above. It counts as cell-based, Klebsiella pneumoniae. To be noted: BLI at 4 μg/mL. The procedure:
as §3, §5, §6, §7, §8

Assay [13] has as its system Kpn.2926 (CTX-M-15, OXA-48, clinical). Described as above. Type of assay: cell-based, Klebsiella pneumoniae. To be noted: BLI at 4 μg/mL. The procedure: as §3, §5, §6, §7, §8
For assay [14], the system named is Kpn.571 (TEM-26, clinical). Described as above. It counts as cell-based, Klebsiella pneumoniae. To be noted: BLI at 4 μg/mL. The procedure:
as §3, §5, §6, §7, §8

A further assay concerns Eco.2711 (KPC, clinical). Described as above. Type of assay: cell-based, Escherichia coli. To be noted: BLI at 4 μg/mL. Here is the method:
as §3, §5, §6
(§9) The two compound components of the assay were each diluted in CAMHB and added to the 96-well broth microdilution assay plates. […]
as §4

Assay [15] deals with Eco.2781 (KPC-2, TEM+, clinical). The description is as above. It counts as cell-based, Escherichia coli. The following applies: BLI at 4 μg/mL. The procedure: as §3, §5, §6, §9, §4
In assay [16] the test system is Eco.2840 (KPC-4, isogenic). Described as above. It counts as cell-based, Escherichia coli. To be noted: BLI at 4 μg/mL. Here is the method: as §3, §5, §6, §9, §4

Consider “(2S,5R)-2-(5-(3-aminopropyl)-1,3,4-oxadiazol-2-yl)-7-oxo-1,6-diazabicyclo[3.2.1]octan-6-yl hydrogen sulfate [ψ]”, for which the sMIC result in [1], in assay [2] and in assay [3] was “B (B = 1-2 μg/mL)” in each case. The “MIC of Ceftolozane in combination with BLI” value (“MIC of Ceftolozane” for short) in assay [4] is recorded as “B (B = 1-2 μg/mL)”; in assay [5] it was “AA (AA = <0.25 μg/mL)”; in assay [6], “AA (AA = <0.25 μg/mL)”; in [7] it was “B (B = 1-2 μg/mL)”; in assay [8], “AA (AA = <0.25 μg/mL)”; in [9], “AA (AA = <0.25 μg/mL)”. The “MIC of Ceftolozane” value in assay [10] is on record as “A (A = 0.25-0.5 μg/mL)”; in [11], “AA (AA = <0.25 μg/mL)”; in [12] it was “B (B = 1-2 μg/mL)”; in [13], “A (A = 0.25-0.5 μg/mL)”; in [14], “AA (AA = <0.25 μg/mL)”; with Eco.2711 (KPC, clinical), “AA (AA = <0.25 μg/mL)”. Further, the entries for the “MIC of Ceftolozane” value in [15] and in [16] were “AA (AA = <0.25 μg/mL)” and “C (C = 4-8 μg/mL)”, respectively.
